Experimental logP (octanol/water) values from OPERA 2.9

Data: OPERA 2.9 data sets, kmansouri/OPERA on GitHub.

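These are experimental values that the OPERA curators gathered from public databases to train and test their QSAR models. A listed value is a point estimate from one report or more. How each value was measured is not recorded, so precision varies. A value may pool stereoisomers or salt forms, and the file does not say which form was measured. Some entries may be limits or estimates that an upstream database listed as plain numbers.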

The octanol-water partition coefficient is given as log10; larger values mean a more lipophilic compound. "–" marks a cell with nothing listed here.

SMILES,name,logP (octanol/water)
C=CCOC(=O)C1CCCCC1C(=O)OCC=C (stereo not given),"Diprop-2-en-1-yl cyclohexane-1,2-dicarboxylate",3.54
N[C@@H](Cc1ccc(O)c(Cl)c1)C(=O)O,3-Chloro-L-tyrosine,-0.89
CC1=C(C#N)C(C)(C)CCC1,"2,6,6-trimethyl-1-cyclohexene-1-carbonitrile",2.7
O=C(O)[C@H](O)c1ccccc1Cl,(R)-(-)-2-Chloromandelic acid,1.51
CC1CCCC(C)C1N (stereo not given),"2,6-Dimethylcyclohexan-1-amine",2
CN(N=O)C(=O)N[C@@H](C=O)[C@@H](O)[C@@H](O)[C@H](O)CO,Epistreptocin,-0.89
CCCC(=O)OC(C)C1CCCCC1 (stereo not given),1-Cyclohexylethyl butyrate,5.2
N=C1NC(=N)c2ccccc21,"1H-Isoindole-1,3(2H)-diimine",0.62
O=C(CCS)OCC(COC(=O)CCS)(COC(=O)CCS)COC(=O)CCS,–,2.915
CC(Cl)(Cl)CC(Cl)(Cl)Cl,"1,1,1,3,3-Pentachlorobutane",2.7
Cc1cc(OI)c(C(C)C)cc1-c1cc(C(C)C)c(OI)cc1C,Thymol iodide,4.8
O=C(O)[C@@H]1C[C@@H](O)CN1,Hydroxyproline,-3.17
CC1CCCCCCCCCCCCC(=O)C1 (stereo not given),3-Methylcyclopentadecan-1-one,6.06
CCN(CC)C(=O)N1CCN(C)CC1,Diethylcarbamazine,0.1
CC(O)CC(C)CCc1ccccc1 (stereo not given),4-Methyl-6-phenylhexan-2-ol,3.37
CCCCCCOC1CCC(C)(C)O1 (stereo not given),"Furan, 5-(hexyloxy)tetrahydro-2,2-dimethyl-",5.6
CCCOCOCCC,"Propane, 1,1'-[methylenebis(oxy)]bis-",2.04
CC(CC(C)C)=NCCNCCN=C(C)CC(C)C,"N1,N3-Bis(1,3-dimethylbutylidene)diethylenetriamine",7.63
CCN(CC)c1ccc(C(=C2C=CC(=[N+](CC)CC)C=C2)c2ccc(S(=O)(=O)[O-])cc2S(=O)(=O)[O-])cc1.[Na+],Sulfan blue,-2.783
CC(C)=CCCC(C)CCOC=O (stereo not given),Citronellyl formate,3.9
NS(=O)(=O)c1ccccc1C(F)(F)F,2-(Trifluoromethyl)benzenesulfonamide,0.96
O=C1CCc2[nH]c3ccccc3c2C1,"1,2,4,9-Tetrahydro-3H-carbazol-3-one",2.4
CCCCOC(=O)OCCCC,"Carbonic acid, dibutyl ester",3.2
CCCn1c(=O)c(C)cn2nc(N)nc12,–,0.49
CCOC1C(C)CCCC1C (stereo not given),"2-Ethoxy-1,3-dimethylcyclohexane",3.97
CNc1ccc(O)cc1,N-Methyl-p-aminophenol,0.882
N#CCCN(CCc1ccccc1)c1ccc(N=Nc2ccc([N+](=O)[O-])cc2C#N)cc1,–,4.8
CCCCC1=NC2(CCCC2)C(=O)N1.Cl,–,0.2
C=CCCCCCC=O,Oct-7-enal,2.4
OC1CCCC1,Cyclopentanol,0.71
CCNC(=S)OC(C)C,"Carbamothioic acid, ethyl-, O-(1-methylethyl) ester",2.3

The last 4 entries again:

SMILES	name	logP (octanol/water)
CCCCC1=NC2(CCCC2)C(=O)N1.Cl	–	0.2
C=CCCCCCC=O	Oct-7-enal	2.4
OC1CCCC1	Cyclopentanol	0.71
CCNC(=S)OC(C)C	Carbamothioic acid, ethyl-, O-(1-methylethyl) ester	2.3